Measurements from ChEMBL document CHEMBL1148456, “Structure-based design and synthesis of non-nucleoside, potent, and orally bioavailable adenosine deaminase inhibitors” (J Med Chem, 2004).
pKi: −log10 of the molar value.

target: T1, Adenosine deaminase (Homo sapiens, UniProt P00813)
T1 sequence (P00813 whole entry): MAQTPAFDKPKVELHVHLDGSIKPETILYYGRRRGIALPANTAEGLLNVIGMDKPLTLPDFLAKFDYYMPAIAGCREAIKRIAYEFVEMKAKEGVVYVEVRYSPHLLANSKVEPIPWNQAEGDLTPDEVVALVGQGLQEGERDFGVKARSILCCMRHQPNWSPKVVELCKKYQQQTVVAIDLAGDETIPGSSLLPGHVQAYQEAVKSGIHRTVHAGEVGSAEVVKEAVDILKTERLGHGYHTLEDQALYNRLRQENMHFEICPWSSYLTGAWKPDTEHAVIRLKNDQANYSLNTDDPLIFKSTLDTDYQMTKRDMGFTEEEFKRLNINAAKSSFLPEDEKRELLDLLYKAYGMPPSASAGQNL

| Structure (SMILES) | pKi |
| --- | --- |
| NC(=O)c1cn(C(CO)CCc2cccc3ccccc23)cn1 (centres undefined) | 6.17 |
| C[C@H](O)[C@@H](CCc1cccc(Cl)c1Cl)n1cnc(C(N)=O)c1 | 7.89 |
| C[C@H](O)[C@@H](CCOc1ccc2ccccc2c1)n1cnc(C(N)=O)c1 | 8.01 |
| C[C@H](O)[C@@H](CCc1cccc2ccccc12)n1cnc(C(N)=O)c1 | 7.96 |
